From ChEMBL document CHEMBL3407412, “Synthesis and bioevaluation of pyrazole-benzimidazolone hybrids as novel human 4-Hydroxyphenylpyruvate dioxygenase inhibitors” (Eur J Med Chem, 2015)

By UniProt entry, the sequences of proteins in these tests, tags left out. Where a name states a change or a piece, a line headed by the entry shows the natural chain unless it says otherwise.
UniProt P32754: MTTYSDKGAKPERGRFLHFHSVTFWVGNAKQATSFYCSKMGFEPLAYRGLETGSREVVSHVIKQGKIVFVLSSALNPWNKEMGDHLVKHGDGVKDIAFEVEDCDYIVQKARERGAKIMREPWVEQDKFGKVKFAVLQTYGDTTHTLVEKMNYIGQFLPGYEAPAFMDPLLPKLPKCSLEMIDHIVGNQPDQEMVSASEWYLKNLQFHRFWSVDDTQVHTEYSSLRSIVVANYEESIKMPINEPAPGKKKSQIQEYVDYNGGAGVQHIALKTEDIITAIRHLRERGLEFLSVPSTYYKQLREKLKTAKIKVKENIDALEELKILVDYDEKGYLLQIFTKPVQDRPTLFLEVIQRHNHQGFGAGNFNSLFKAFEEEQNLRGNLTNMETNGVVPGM

target: 4-hydroxyphenylpyruvate dioxygenase (Homo sapiens, UniProt P32754); assay: Inhibition of human recombinant His-tagged HPPD expressed in Escherichia coli BL21(DE3) by UV/visible plate reader analysis

| SMILES | IC50 [nM] |
| --- | --- |
| CCCn1c(=O)n(C)c2ccc(C(=O)c3cnn(C)c3O)cc21 | 59 |
| CC(C)Cn1c(=O)n(C)c2ccc(C(=O)c3cnn(C)c3O)cc21 | 140 |
| Cn1ncc(C(=O)c2ccc3c(c2)n(C2CCCC2)c(=O)n3C)c1O | 130 |
| CC(C)n1c(=O)n(C)c2ccc(C(=O)c3cnn(C)c3O)cc21 | 61 |
| CCn1c(=O)n(C)c2ccc(C(=O)c3cnn(C)c3O)cc21 | 22 |
| Cn1ncc(C(=O)c2ccc3c(c2)n(Cc2ccccc2)c(=O)n3C)c1O | 130 |
| Cn1ncc(C(=O)c2ccc3c(c2)n(C2CC2)c(=O)n3C)c1O | 100 |
| CCCn1c(=O)n(CC)c2ccc(C(=O)c3cnn(C)c3O)cc21 | 22 |
| CCn1c(=O)n(CC)c2cc(C(=O)c3cnn(C)c3O)ccc21 | 21 |
| CCn1c(=O)n(C(C)C)c2cc(C(=O)c3cnn(C)c3O)ccc21 | 64 |
| CCn1c(=O)n(C(C)(C)C)c2cc(C(=O)c3cnn(C)c3O)ccc21 | 150 |
| CCn1c(=O)n(C2CC2)c2cc(C(=O)c3cnn(C)c3O)ccc21 | 220 |
| CCCn1c(=O)n(CCC)c2cc(C(=O)c3cnn(C)c3O)ccc21 | 40 |
| CCCn1c(=O)n(C(C)(C)C)c2cc(C(=O)c3cnn(C)c3O)ccc21 | 77 |
| CCCn1c(=O)n(C)c2ccc(C(=O)c3c(C)nn(C)c3O)cc21 | 1030 |
| CCCCn1c(=O)n(C)c2ccc(C(=O)c3c(C)nn(C)c3O)cc21 | 640 |
| Cc1nn(C)c(O)c1C(=O)c1ccc2c(c1)n(C1CCCC1)c(=O)n2C | 930 |
| Cc1nn(C)c(O)c1C(=O)c1ccc2c(c1)n(C(C)C)c(=O)n2C | 940 |
| CCn1c(=O)n(C)c2ccc(C(=O)c3c(C)nn(C)c3O)cc21 | 970 |
| Cc1nn(C)c(O)c1C(=O)c1ccc2c(c1)n(C(C)(C)C)c(=O)n2C | 990 |
| Cc1ccc(-n2c(=O)n(C)c3ccc(C(=O)c4c(C)nn(C)c4O)cc32)cc1 | 990 |
| CCCn1c(=O)n(CC)c2ccc(C(=O)c3c(C)nn(C)c3O)cc21 | 880 |
| CCn1c(=O)n(CC)c2cc(C(=O)c3c(C)nn(C)c3O)ccc21 | 940 |
| CCn1c(=O)n(C(C)C)c2cc(C(=O)c3c(C)nn(C)c3O)ccc21 | 970 |
| CCCn1c(=O)n(CC)c2cc(C(=O)c3c(C)nn(C)c3O)ccc21 | 740 |
| CCCn1c(=O)n(CCC)c2cc(C(=O)c3c(C)nn(C)c3O)ccc21 | 720 |
| CCCn1c(=O)n(C(C)C)c2cc(C(=O)c3c(C)nn(C)c3O)ccc21 | 1190 |
